Measurements from patent publication US5658885A, “Amidino and guanidino substituted boronic acid inhibitors of trypsin-like enzymes” (The DuPont Merck Pharmaceutical Company, priority 1994, dated 1997).

Biological target: human thrombin (Homo sapiens, UniProt P00734)
Experiment: Inhibition of thrombin hydrolysis of chromogenic substrate S2238 (Ki)
Details: read-out: Thrombin Ki, S2238, pH 7.5

**Q.** How did the Ki turn out when `CC(=O)N[C@H](Cc1ccccc1)C(=O)N1CCC[C@H]1C(=O)NC(B1OC2CC3CC(C3(C)C)C2(C)O1)c1ccc(CC#N)cc1` (stereo partly shown) was run?
**A.** < 500 nM
